The results in this text go back to PubChem BioAssay AID652048 (National Center for Advancing Translational Sciences (NCATS), 2013).

Sequences of proteins named here, by UniProt entry; tags and fusion partners are left off.
UniProt P35462, whole entry: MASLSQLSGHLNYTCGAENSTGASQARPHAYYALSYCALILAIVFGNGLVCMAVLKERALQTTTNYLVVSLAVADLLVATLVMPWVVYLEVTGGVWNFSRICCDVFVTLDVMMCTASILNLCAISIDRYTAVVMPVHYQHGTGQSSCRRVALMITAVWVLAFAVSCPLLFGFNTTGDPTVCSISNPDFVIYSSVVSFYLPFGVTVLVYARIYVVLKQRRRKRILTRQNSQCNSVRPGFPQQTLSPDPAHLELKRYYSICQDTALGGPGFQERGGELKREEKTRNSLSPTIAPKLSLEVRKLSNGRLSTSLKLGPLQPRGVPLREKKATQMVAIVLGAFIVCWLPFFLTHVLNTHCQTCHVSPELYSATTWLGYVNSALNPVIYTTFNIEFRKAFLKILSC

The entries are a selection whose mix differs from that of the whole data set. Active and inactive are the calls of the source. No stated cut-off is given here; in the data, active means max activation above about 30%; inactive means the rest.

This test addresses D(3) dopamine receptor (Homo sapiens) (UniProt P35462). Briefly: qHTS of D3 Dopamine Receptor Agonist: qHTS. Further: 0% is about no effect. Particulars: D3R DiscoveRx beta-arrestin cells, luminescence, 90 min; active compounds read high. The source says:
D3 DARs represent a very important target for the treatment of several neuropsychiatric disorders. Indeed, one of the most promising therapeutic applications for the D3 DAR is in the area of addiction and related disorders. […] These findings have been observed with a number of addictive substances including cocaine, amphetamine, nicotine, and alcohol. […] Antagonism of the D3 DAR may also be therapeutic in the treatment of schizophrenia or psychosis. […] Since the D3 DAR is expressed in areas of the CNS associated with the control of mood and emotion, it has been hypothesized that selective antagonism of the D3 DAR may be effective in treating psychosis without inducing the motor side effects typically seen with D2 DAR antagonists.
This part of the project aims to discover novel agonist.
NIH Chemical Genomics Center [NCGC]
NIH Molecular Libraries Probe Centers Network [MLPCN]
Assay Submitter (PI): David Sibley, NINDS
Freshly passaged cells are plated in 1536 well white, solid bottom plates at a density of 1500 cells/well in 3microl of complete media. After an overnight incubation at 37 degrees C in 5% CO2, cells are loaded with 23nl of test compound from the compound library (as well as dopamine controls) using a 1536 pintool and incubated at 37 degrees C for 90 minutes. Two microliters of DiscoveRx reagent is then added to all cells, and they are incubated for an additional 30 - 60 minutes at room temperature. Following incubation, luminescence is measured on a ViewLux CCD-based luminometer reader using a 20 sec exposure time.
Background: qHTS replaces the single test concentration by a dilution series.
Consider `Cc1cc(C)cc(OP(C)(=O)Nc2cccc(C(F)(F)F)c2)c1` (stereo not given), for which the max activation is inactive: -6.73%. The result for `COc1ccc(OP(C)(=O)Nc2ccccc2Br)cc1` (stereo not given) reads inactive: 2.84%; that for `COc1ccccc1OP(C)(=O)Nc1ccc(C)c(C)c1` (stereo not given), inactive: -2.31%. Regarding `CP(=O)(OCCOc1ccccc1)OCCOc1ccccc1`, the max activation was inactive: 0.893%. `CCCCCCCCCCCCCCCC1C[N+](C)(C)CCOP(C)(=O)O1` (stereo not given): the max activation is inactive: -19.5%. Turning to `CP(=O)(Nc1ccc(Cl)cc1Cl)Oc1ccccc1` (stereo not given), the max activation is inactive: -15.3%. As for `COc1ccccc1OP(C)(=O)Nc1ccc(Br)cc1` (stereo not given), the max activation was inactive: 5.14%.

As to `CN(C)CCOC(=O)C(O)(c1ccccc1)C1CCCC1` (stereo not given), the max activation is inactive: -29.3%. Regarding `COc1ccc(OP(C)(=O)Nc2ccccn2)cc1` (stereo not given), the max activation is inactive: 0.541%.

Take `O=[N+]([O-])c1cc([N+](=O)[O-])c(Nc2ccccn2)c([N+](=O)[O-])c1`: the max activation was inactive: -20.3%.

For `Cc1c(NP(C)(=O)Oc2ccc(C(C)C)cc2)c(=O)n(-c2ccccc2)n1C` (stereo not given), the max activation was inactive: 0.787%. On to `CCc1ccc(OP(C)(=O)O)cc1`, for which the max activation was inactive: -3.4%.

For `COc1ccccc1OP(C)(=O)Nc1ccc(C)cc1C` (stereo not given), the max activation was inactive: 0.15%. On to `CP(=O)(Nc1ccccn1)Oc1ccccc1` (stereo not given), for which the max activation was inactive: -1.24%. For `COc1ccc(OP(C)(=O)Nc2ccc(Br)cc2)cc1` (stereo not given), the max activation was inactive: 2.34%. On to `CCN(CC)CC(O)COC(=O)C(O)(c1ccccc1)C1CCCCC1` (stereo not given), for which the max activation was inactive: -12.2%. For `CCc1ccc(OP(C)(=O)Nc2cccnc2)cc1` (stereo not given), the max activation was inactive: 0.206%. For `CP(=O)(Oc1ccccc1)N1CCOC1=O` (stereo not given), the max activation is inactive: -0.451%.

As to `O=C(OCCCN1CCCC1)C(O)(c1ccccc1)C1CCCCC1` (stereo not given), the max activation is inactive: -37.2%.

As to `OCCSCCO`, the max activation is inactive: 9.59%.

As to `COc1ccccc1OP(C)(=O)Nc1c(C)n(C)n(-c2ccccc2)c1=O` (stereo not given), the max activation was inactive: -0.865%. Regarding `CP(=O)(Nc1ccc(Cl)cc1)Oc1ccc(F)cc1` (stereo not given), the max activation was inactive: -0.555%. Turning to `CC(C)(C)c1ccc(OP(C)(=O)O)cc1`, the max activation was inactive: -4.2%. Turning to `COc1ccccc1OP(C)(=O)Nc1ccccc1Br` (stereo not given), the max activation is inactive: 2.43%. `CN(C)C(=O)c1c([N+](=O)[O-])cc([N+](=O)[O-])cc1[N+](=O)[O-]`: the max activation was inactive: -24.8%. For the compound `Nc1ccc2c(ccc3cccnc32)n1.O=[N+]([O-])c1cc([N+](=O)[O-])c(O)c([N+](=O)[O-])c1`, the max activation was inactive: 3.67%. The result for `CP(=O)(OC12CC3CC(CC(C3)C1)C2)OC12CC3CC(CC(C3)C1)C2` reads inactive: 15.1%. Next, `CCOC(=O)c1ccc(NP(C)(=O)Oc2ccc(Cl)cc2)cc1` (stereo not given): inactive: 6.46%. For `CC(C)OP(=O)(F)OC(C)C`, the max activation is inactive: 7.61%. For the compound `COc1ccc(OP(C)(=O)Nc2cccc(Br)c2)cc1` (stereo not given), the max activation is inactive: -2.36%. Turning to `COc1ccc(NP(C)(=O)Oc2ccccc2OC)cc1` (stereo not given), the max activation was inactive: 0.438%.

For `CN(C)CCOC(=O)C(O)(c1ccccc1)C1CCCCC1` (stereo not given), the max activation is inactive: -18.7%. In the case of `Cc1cc(-c2cccc3ccccc23)c(C)cn1.O=[N+]([O-])c1cc([N+](=O)[O-])c(O)c([N+](=O)[O-])c1`, the max activation was inactive: -24.7%.

As to `O=[N+]([O-])c1ccc(OP2(=O)COCCO2)cc1` (stereo not given), the max activation was inactive: 1.75%.

On to `Cc1c(C(c2ccc3c(c2)OCO3)c2c(C)n(C)n(-c3ccccc3)c2=O)c(=O)n(-c2ccccc2)n1C.O=[N+]([O-])c1cc([N+](=O)[O-])c(O)c([N+](=O)[O-])c1`, for which the max activation was inactive: -11.7%.

In the case of `C/C1=C2N=C(/C=C3N=C(/C(C)=C4\[N-][C@@](C)([C@@H]5N=C1[C@](C)(CCC(=O)NC[C@@H](C)OP(=O)([O-])O[C@H]1[C@@H](O)[C@@H](n6cnc7cc(C)c(C)cc76)O[C@@H]1CO)[C@H]5CC(N)=O)[C@@](C)(CC(N)=O)[C@@H]4CCC(N)=O)[C@@](C)(CC(N)=O)[C@@H]\3CCC(N)=O)C(C)(C)[C@@H]/2CCC(N)=O.[C-]#N.[Co+3]`, the max activation is inactive: 3.33%. Turning to `CP(=O)(Nc1ccc(SC(F)(F)F)cc1)Oc1ccc(F)cc1` (stereo not given), the max activation is inactive: -11.1%.

With `CCOP(C)(=S)SCC(=O)NC(C)(CC)C(=O)O` (stereo not given), the max activation is inactive: -1%. Take `CP(=O)(Nc1ccc2c(c1)OCCO2)Oc1ccccc1` (stereo not given): the max activation is inactive: -13.5%. For `O=[N+]([O-])c1cc([N+](=O)[O-])c(C(F)(F)F)c([N+](=O)[O-])c1O`, the max activation is inactive: -7.73%.

Regarding `Cc1ccccc1NP(C)(=O)Nc1ccccc1C`, the max activation is inactive: 5.97%. On to `CC(C)c1ccc(OP(C)(=O)Nc2ccc(SC(F)(F)F)cc2)cc1` (stereo not given), for which the max activation is inactive: 15.9%. Consider `CP(=O)(Nc1ccccc1F)Oc1ccccc1` (stereo not given), for which the max activation is inactive: 2.95%. Next, `O=C(OCCN1CCN(CCOCc2ccccc2)CC1)C(O)(c1ccccc1)c1ccccc1`: active: 34%; `CCOP(=O)(CC)Oc1ccc([N+](=O)[O-])cc1` (stereo not given): inactive: -8.58%. Consider `Cc1cccc([N+](=O)[O-])c1[N+](=O)[O-]`, for which the max activation was inactive: 4.71%. Next, `COc1ccc(OP(C)(=O)Nc2ccc(SC(F)(F)F)cc2)cc1` (stereo not given): inactive: -3.89%; `CCOC(=O)c1ccc(NP(C)(=O)Oc2ccc(F)cc2)cc1` (stereo not given): inactive: 3.86%; `CCN(CC)CCCOC(=O)C(O)(c1ccccc1)C1CCCCC1` (stereo not given): inactive: -6.3%. Next, `[As+3].[As+3].[O-2].[O-2].[O-2]`: inactive: 5.86%.
